# Values of other authors, collected in patent publication US20050266042A1, “Methods and apparatus for treatment of aneurysmal tissue” (Medtronic Vascular, Inc., priority 2004, published 2005).
# Details: in vivo
compound,measurement,value
NCCCC[C@H](N[C@@H](CCc1ccccc1)C(=O)O)C(=O)N1CCC[C@H]1C(=O)O [lisinopril],route of elimination / clearance,cleared as the intact compound in the kidney
